{"source": "paper PMC5809328", "about": "(Neuropharmacology, 2017)", "origin": "cited, not measured here", "system": "mice", "conditions": "ref Pan et al., 2009, Marrone 2017; cited from earlier work", "data": [{"smiles": "CN1CC[C@]23c4c5ccc(O)c4O[C@H]2[C@@H](O)C=C[C@H]3[C@H]1C5", "note": "[Morphine]", "values": [{"measurement": "analgesic activity in E11 KO mice", "value": "retains full analgesic activity"}]}]}
